Source: ChEMBL document CHEMBL1148638, “Aminopyridine-based c-Jun N-terminal kinase inhibitors with cellular activity and minimal cross-kinase activity” (J Med Chem, 2006)

The chains behind the UniProt entries cited, without tags or fusion partners. Where a name states a change or a piece, a line headed by the entry shows the natural chain unless it says otherwise.
UniProt P45983: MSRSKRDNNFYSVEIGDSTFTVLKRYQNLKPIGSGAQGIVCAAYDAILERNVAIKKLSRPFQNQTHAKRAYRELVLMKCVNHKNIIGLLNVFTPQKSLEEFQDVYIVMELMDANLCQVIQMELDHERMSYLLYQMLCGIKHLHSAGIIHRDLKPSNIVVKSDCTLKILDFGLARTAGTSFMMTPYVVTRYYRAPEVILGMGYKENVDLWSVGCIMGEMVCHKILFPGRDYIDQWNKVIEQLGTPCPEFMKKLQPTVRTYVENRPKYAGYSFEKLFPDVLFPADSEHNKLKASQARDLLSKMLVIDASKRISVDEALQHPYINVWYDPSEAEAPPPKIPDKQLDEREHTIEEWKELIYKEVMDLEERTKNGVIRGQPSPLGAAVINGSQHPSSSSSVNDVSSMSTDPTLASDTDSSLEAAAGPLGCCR

Biological target: Mitogen-activated protein kinase 8 (Homo sapiens, UniProt P45983)
Assay: Inhibition of JNK1-mediated ATF2 phosphorylation

IC50: 77 nM
Compound: CCOc1nc(NC(=O)Cc2cc(OC)c(Br)cc2OC)cc(N)c1C#N
